Screens deposited in PubChem by several laboratories.
A selection: hits, their analogues and other compounds. The true share with any hit is near 1.5%.
eIF4H inh: human eIF4H binding inhibitors, primary screen, translation initiation inhibitor project, biochemical, uHTS, fluorescence polarization. Eukaryotic translation initiation factor 4H (Homo sapiens), Q15056. eIF4H fluorescence polarization binding assay. inhibition, % at 35 µM. hit rate 0.94% among 290,000;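 further: calls also rest on retests at 20 µM and on dose response follow-up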
UUG fidelity: modulators of yeast start codon fidelity, primary screen, whole organism, S. cerevisiae, single point, plate reader | AID 602363, 2012 | actives 0.13% (n = 350,000) | activity score, % at 18.7 µM | S. cerevisiae UUG-firefly luciferase reporter, luminescence/redox ratio;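 active means replicate mean at a twofold rise or more, about +100% in these data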;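 further: firefly luciferase made from a UUG start codon reports start codon fidelity; reporter light over untreated wells divided by growth signal over untreated wells; some hits fall short of that in this replicate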
DSG3 Ab inh: inhibitors of pemphigus antibody binding to DSG3, primary screen, biochemical, bead-based, flow cytometry, scFv-GFP. AID 588358, 2011. DSG3-coupled beads, scFv-anti-DSG3-GFP binding; active compounds read low. binding (percent of control), % at 10 µM. Desmoglein-3 (Homo sapiens), P32926. hit rate 0.48% among 310,000;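 active means binding more than 3 SD below its plate's average and above zero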;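 further: hits lower antibody fragment binding to DSG3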
MLLE-PAM2 inh: inhibitors of PABP1 MLLE–PAM2 peptide binding, primary screen, biochemical, fluorescence polarization, FITC-PAM2, GST-MLLE; hit rate 0.36% among 360,000; AID 588489, 2011; inhibition, % at 20 µM; in the data active means inhibition above about 35%, passing the limit was not always enough
PABP FP inh: PABP poly(A) RNA binding inhibitors, primary screen, biochemical, fluorescence polarization, uHTS | calls only at 35 µM | hit rate 1% among 290,000 | AID 2014, 2009 | Polyadenylate-binding protein 1 (Homo sapiens), P11940;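 further: calls also rest on retests at 20 µM and on dose response follow-up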
Large screens that a line does not name were inactive. Unless noted, how the calls were made is not given here.

The chains behind the UniProt entries cited, without tags or fusion partners.
Desmoglein-3 (Homo sapiens), P32926, UniProt P32926, whole entry, looked up: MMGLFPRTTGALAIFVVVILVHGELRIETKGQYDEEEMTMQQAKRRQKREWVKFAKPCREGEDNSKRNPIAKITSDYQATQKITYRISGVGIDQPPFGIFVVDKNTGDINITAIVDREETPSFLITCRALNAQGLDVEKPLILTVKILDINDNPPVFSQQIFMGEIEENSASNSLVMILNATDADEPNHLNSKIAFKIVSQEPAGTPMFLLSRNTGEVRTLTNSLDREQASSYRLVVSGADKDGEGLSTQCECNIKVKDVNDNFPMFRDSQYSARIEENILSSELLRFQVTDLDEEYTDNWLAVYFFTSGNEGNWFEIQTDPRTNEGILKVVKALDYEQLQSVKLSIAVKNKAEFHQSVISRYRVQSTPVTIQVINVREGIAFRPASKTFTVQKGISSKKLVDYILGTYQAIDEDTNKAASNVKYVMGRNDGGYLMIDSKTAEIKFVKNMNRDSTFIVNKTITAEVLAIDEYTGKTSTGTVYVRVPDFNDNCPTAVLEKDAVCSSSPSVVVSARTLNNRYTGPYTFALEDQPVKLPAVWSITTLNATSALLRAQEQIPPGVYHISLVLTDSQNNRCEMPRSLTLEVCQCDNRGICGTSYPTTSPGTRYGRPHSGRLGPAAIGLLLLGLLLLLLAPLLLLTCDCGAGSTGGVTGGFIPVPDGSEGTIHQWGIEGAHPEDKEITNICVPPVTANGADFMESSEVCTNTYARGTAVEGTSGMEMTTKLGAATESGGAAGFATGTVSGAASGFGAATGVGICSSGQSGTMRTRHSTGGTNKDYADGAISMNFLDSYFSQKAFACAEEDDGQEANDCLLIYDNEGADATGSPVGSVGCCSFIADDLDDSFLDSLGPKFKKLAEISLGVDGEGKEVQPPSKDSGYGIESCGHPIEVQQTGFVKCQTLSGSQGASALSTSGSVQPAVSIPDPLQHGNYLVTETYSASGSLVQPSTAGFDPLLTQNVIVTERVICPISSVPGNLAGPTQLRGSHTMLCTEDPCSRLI
Polyadenylate-binding protein 1 (Homo sapiens), P11940, UniProt P11940, whole entry, looked up: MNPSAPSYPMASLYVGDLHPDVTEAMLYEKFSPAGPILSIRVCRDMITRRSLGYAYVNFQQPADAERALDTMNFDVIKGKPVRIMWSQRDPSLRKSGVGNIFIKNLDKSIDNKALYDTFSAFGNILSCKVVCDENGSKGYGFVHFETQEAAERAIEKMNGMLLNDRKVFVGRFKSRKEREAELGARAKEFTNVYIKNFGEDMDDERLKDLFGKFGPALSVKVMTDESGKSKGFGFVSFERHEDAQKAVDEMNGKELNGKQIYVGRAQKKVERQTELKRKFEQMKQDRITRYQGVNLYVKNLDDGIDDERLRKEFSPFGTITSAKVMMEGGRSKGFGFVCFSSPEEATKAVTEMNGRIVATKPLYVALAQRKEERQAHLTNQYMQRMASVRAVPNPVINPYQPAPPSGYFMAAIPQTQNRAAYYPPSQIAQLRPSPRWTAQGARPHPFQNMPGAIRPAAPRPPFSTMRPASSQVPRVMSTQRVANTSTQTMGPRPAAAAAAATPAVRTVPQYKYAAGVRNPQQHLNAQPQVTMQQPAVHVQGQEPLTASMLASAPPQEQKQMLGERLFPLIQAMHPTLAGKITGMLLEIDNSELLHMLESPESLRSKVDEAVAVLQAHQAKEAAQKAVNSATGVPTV

Cc1ccc(S(=O)(=O)N(C)C[C@H]2OCCCC[C@@H](C)Oc3ccc(NS(=O)(=O)c4ccc(F)cc4)cc3C(=O)N([C@@H](C)CO)C[C@H]2C)cc1	none (no result: eIF4H inh, DSG3 Ab inh, MLLE-PAM2 inh, PABP FP inh)
CCOc1cc(/C=C2/NC(=O)N(CC(=O)Nc3cccc(C)c3)C2=O)ccc1OCC(N)=O	DSG3 Ab inh 50 (no result: UUG fidelity)
Cc1ccc(NC(=O)CN2C(=O)N/C(=C/c3ccco3)C2=O)cc1	eIF4H inh 90, PABP FP inh active
COc1ccc(NC(=O)Nc2ccc3c(c2)C(=O)N([C@@H](C)CO)C[C@H](C)[C@@H](CN(C)C(=O)Nc2ccc(F)cc2)O3)cc1	none (no result: eIF4H inh, DSG3 Ab inh, MLLE-PAM2 inh, PABP FP inh)
O=C1CC(c2ccc(O)cc2)Oc2cc(O)cc(O)c21 (configuration not stated)	none
CC1CC(=O)c2c(cc3c(-c4c(O)cc(O)c5c(O)c6c(cc45)OC(C)CC6=O)c(O)cc(O)c3c2O)O1 (configuration not stated)	eIF4H inh 100, PABP FP inh active (no result: DSG3 Ab inh)
CO[C@H]1O[C@H](CO)[C@@H](OC(=O)Nc2ccccc2)[C@H](OC(=O)Nc2ccc3c(c2)OCO3)[C@@H]1OC(=O)Nc1ccc2c(c1)OCO2	none (no result: eIF4H inh, DSG3 Ab inh, MLLE-PAM2 inh, PABP FP inh)
CC(=Nc1ccccc1)C1=C(O)CSC1=O	eIF4H inh 34, PABP FP inh active
COC(=O)C1=C(C(=O)OC)C(c2ccccc2O)c2sc(=O)[nH]c2S1 (configuration not stated)	MLLE-PAM2 inh 45 (no result: UUG fidelity)
CNC[C@H]1Oc2ccc(NC(=O)C3CCCCC3)cc2CC(=O)N([C@@H](C)CO)C[C@@H]1C	none (no result: eIF4H inh, DSG3 Ab inh, MLLE-PAM2 inh, PABP FP inh)
CCc1nn(CC(=O)N2CCN(CC)CC2)c(=O)c2cc3sccc3n12	none
CCc1nn(CC(=O)NCCc2ccc(S(N)(=O)=O)cc2)c(=O)c2cc3sccc3n12	DSG3 Ab inh 82
C[C@@H]1CN([C@H](C)CO)S(=O)(=O)c2ccc(C#Cc3ccccn3)cc2O[C@H]1CN(C)C(=O)C1CC1	none (no result: eIF4H inh, DSG3 Ab inh, MLLE-PAM2 inh, PABP FP inh)
CCN1CCN(C2=C(Cl)C(=O)N(Cc3ccccc3)C2=O)CC1	none
CN1CCN(C2=C(Cl)C(=O)N(Cc3ccccc3)C2=O)CC1	eIF4H inh 89, PABP FP inh active
Cn1c2ccccc2c2nnc(SCc3nnc(-c4ccccc4)o3)nc21	PABP FP inh active (no result: UUG fidelity, DSG3 Ab inh, MLLE-PAM2 inh)
O=C(Nc1ccc(-n2cccc2)cc1)C1CC1	DSG3 Ab inh 68 (no result: UUG fidelity)
CC(C)(C)C1CCC(C(=O)Nc2ccccc2)CC1 (configuration not stated)	DSG3 Ab inh 66
N#CC1=C(N)C2=C(N3CCCCC3)CCCC2C1(C#N)C#N (configuration not stated)	eIF4H inh 110, MLLE-PAM2 inh 39, PABP FP inh active
O=c1c2ccccc2c(C=NCc2ccccn2)c(O)n1-c1ccccc1	eIF4H inh 90, PABP FP inh active
COc1cccc(-n2c(O)c(C=NCc3ccccn3)c3ccccc3c2=O)c1	none (no result: UUG fidelity, DSG3 Ab inh)
CCOc1ccc(NCc2cc3cc(OC)ccc3[nH]c2=O)cc1	eIF4H inh 35, PABP FP inh active (no result: UUG fidelity)
COc1ccc2[nH]c(=O)c(CNc3ccccc3)cc2c1	none
Cc1ccc(-c2ccc([C@@H]3[C@H](CO)N4CCCCN(C(=O)Nc5ccccc5)C[C@@H]34)cc2)cc1	none (no result: eIF4H inh, DSG3 Ab inh, MLLE-PAM2 inh, PABP FP inh)
O=C(Nc1ccccc1)c1sc(N2CCOCC2)nc1-c1ccccc1	eIF4H inh active, PABP FP inh active (no result: UUG fidelity, DSG3 Ab inh)
CC(=O)c1sc(N2CCOCC2)nc1-c1ccccc1	none (no result: DSG3 Ab inh)
CCOc1ccc(NC(=O)c2sc(N3CCOCC3)nc2-c2ccccc2)cc1	none (no result: UUG fidelity, DSG3 Ab inh)
N#C/C(=C\c1sc(N2CCOCC2)nc1-c1ccccc1)C(=O)Nc1cccc2ccccc12	eIF4H inh 55, PABP FP inh active (no result: UUG fidelity, DSG3 Ab inh, MLLE-PAM2 inh)
O=C(C[C@@H]1C[C@@H]2c3cc(NC(=O)CC4CC4)ccc3O[C@@H]2[C@H](CO)O1)NCc1cc(F)ccc1F	none (no result: eIF4H inh, DSG3 Ab inh, MLLE-PAM2 inh, PABP FP inh)
O=C(O)C1C2C=CC3(CN(Cc4ccco4)C(=O)C13)O2 (configuration not stated)	eIF4H inh 84
CSc1nc2c(=S)[nH]c(=S)[nH]c2s1	MLLE-PAM2 inh 39 (no result: eIF4H inh, UUG fidelity, DSG3 Ab inh, PABP FP inh)
O=C(COC(=O)c1ccccc1Nc1cccc(C(F)(F)F)c1)NCc1ccco1	eIF4H inh 54
COc1ccccc1NCCC(=O)OCC(=O)NCc1ccco1	eIF4H inh 96, PABP FP inh active
COc1ccc(OCCC(=O)OCC(=O)NCc2ccco2)cc1	none (no result: DSG3 Ab inh)
O=C(COC(=O)/C=C/c1ccco1)Nc1ncc(C(F)(F)F)cc1Cl	eIF4H inh 88, PABP FP inh active
Cc1ccc2c(Cl)cc(Cl)c(OCC(=O)NCc3ccco3)c2n1	eIF4H inh 98, PABP FP inh active (no result: UUG fidelity, DSG3 Ab inh, MLLE-PAM2 inh)
C[C@@H]1CN([C@H](C)CO)C(=O)Cc2cc(NC(=O)CCC(F)(F)F)ccc2O[C@H]1CN(C)S(=O)(=O)c1ccc(F)cc1	none (no result: eIF4H inh, DSG3 Ab inh, MLLE-PAM2 inh, PABP FP inh)
Cc1ccc(S(=O)(=O)N[C@H]2C=C[C@H](CC(=O)NCc3ccc(Cl)c(Cl)c3)O[C@@H]2CO)cc1	none (no result: eIF4H inh, DSG3 Ab inh, MLLE-PAM2 inh, PABP FP inh)
O=C(COC(=O)c1cccc(S(=O)(=O)N2CCc3ccccc3C2)c1)NCc1ccco1	eIF4H inh 87, PABP FP inh active
COc1ccc(C(=O)OCC(=O)NCc2ccco2)cc1OC	eIF4H inh 89
O=C(COC(=O)/C=C/c1ccco1)NCc1ccco1	eIF4H inh 86
O=C(COC(=O)/C=C/c1ccco1)NCc1ccccc1Cl	none (no result: UUG fidelity)
CCN(CC)S(=O)(=O)c1cccc(NC(=O)COC(=O)/C=C/c2ccco2)c1	eIF4H inh 69
C[C@H]1CCCCO[C@H](CN(C)CC2CC2)[C@@H](C)CN([C@@H](C)CO)C(=O)c2cc(NC(=O)c3ccncc3)ccc2O1	none (no result: eIF4H inh, DSG3 Ab inh, MLLE-PAM2 inh, PABP FP inh)
O=C(COC(=O)c1ccccc1)NCc1ccco1	eIF4H inh 76, PABP FP inh active
Cc1noc(C)c1NC(=O)N(C)C[C@@H]1OCCCC[C@H](C)Oc2ccc(NS(=O)(=O)c3ccccc3)cc2C(=O)N([C@@H](C)CO)C[C@@H]1C	none (no result: eIF4H inh, DSG3 Ab inh, MLLE-PAM2 inh, PABP FP inh)
O=C1C2CC=C(Cl)CC2C(=O)N1CN(Cc1ccco1)CN1C(=O)C2CC=C(Cl)CC2C1=O (configuration not stated)	eIF4H inh 66, PABP FP inh active
Cc1ccc2c(c1)N1C(=O)c3ccccc3C1C1=C(CC(C)(C)CC1=O)N2 (configuration not stated)	eIF4H inh active (no result: DSG3 Ab inh)
CCC(=O)N(C)C[C@@H]1Oc2cc(-c3ccc(OC)cc3)ccc2S(=O)(=O)N([C@H](C)CO)C[C@H]1C	none (no result: eIF4H inh, DSG3 Ab inh, MLLE-PAM2 inh, PABP FP inh)
Cc1cc(/C=C\c2nc(O)c([N+](=O)[O-])c(=O)[nH]2)c(C)n1-c1ccccc1	eIF4H inh 62 (no result: UUG fidelity)
O=c1[nH]c(/C=C\c2ccc(O)c(O)c2)nc(O)c1[N+](=O)[O-]	eIF4H inh 50, PABP FP inh active
CCCn1c(SC(C)C(=O)NC2CCCC(C)C2C)n[nH]c1=O (configuration not stated)	DSG3 Ab inh 79 (no result: eIF4H inh, PABP FP inh)
